Consider two molecules from ChEMBL document CHEMBL1130156, “Evolution of the Dmt-Tic pharmacophore: N-terminal methylated derivatives with extraordinary delta opioid antagonist activity” (J Med Chem, 1997).

The chains behind the UniProt entries cited, without tags or fusion partners.
UniProt P33533, whole entry: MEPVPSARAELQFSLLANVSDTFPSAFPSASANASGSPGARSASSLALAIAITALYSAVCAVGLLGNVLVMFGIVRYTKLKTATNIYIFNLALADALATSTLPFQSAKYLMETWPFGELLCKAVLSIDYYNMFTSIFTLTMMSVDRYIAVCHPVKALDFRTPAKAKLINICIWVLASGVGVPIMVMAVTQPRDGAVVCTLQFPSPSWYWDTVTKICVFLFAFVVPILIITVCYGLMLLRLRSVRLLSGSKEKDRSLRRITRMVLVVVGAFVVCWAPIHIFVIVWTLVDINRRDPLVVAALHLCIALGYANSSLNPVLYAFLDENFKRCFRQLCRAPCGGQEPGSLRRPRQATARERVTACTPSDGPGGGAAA
UniProt P35372, whole entry: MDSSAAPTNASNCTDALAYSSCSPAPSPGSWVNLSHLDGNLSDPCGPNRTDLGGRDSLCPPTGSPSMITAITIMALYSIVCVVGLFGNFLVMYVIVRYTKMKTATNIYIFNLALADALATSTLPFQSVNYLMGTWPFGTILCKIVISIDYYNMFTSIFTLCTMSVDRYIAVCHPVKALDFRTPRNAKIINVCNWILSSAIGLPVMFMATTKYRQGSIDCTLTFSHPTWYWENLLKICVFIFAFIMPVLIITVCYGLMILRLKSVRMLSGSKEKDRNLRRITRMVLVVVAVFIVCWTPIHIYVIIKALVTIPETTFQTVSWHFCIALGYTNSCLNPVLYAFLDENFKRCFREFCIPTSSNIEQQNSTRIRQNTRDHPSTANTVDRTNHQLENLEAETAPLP

Experiment [1] deals with Delta-type opioid receptor (Rattus norvegicus, UniProt P33533). Kind of experiment: Binding affinity for Opioid receptor delta 1 by displacement of [3H]- DPDPE. The method in brief:
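Rat brain (Sprague–Dawley, minus cerebellum) synaptosomal membranes, preincubated to strip endogenous opioids. Equilibrium displacement of [3H]DPDPE (δ) or [3H]DAGO (μ); nonspecific binding defined with 2 μM unlabeled ligand. Peptides spanned 3–4 log units. Duplicates, ≥3 membrane preparations; Ki by Cheng–Prusoff; mean ± SEM, n = independent preparations.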
(Loss of bound radioactivity is the signal in a displacement assay; it reports binding, not function.)

A further experiment has as its target Mu-type opioid receptor (Homo sapiens, UniProt P35372). Kind of experiment: Agonist activity for Opioid receptor mu 1. The class given is functional.

A word on the Ki: it is a dissociation constant, usually derived from enzyme kinetics or from competition with a known ligand. A low value points to a stronger hold on the target. Consider `Cc1cc(O)cc(C)c1CC(N)C(=O)N1Cc2ccccc2C[C@H]1C(=O)O` (single isomer, unassigned), for which, in experiment [1], the affinity, expressed as Ki, was 124 nM.

The term IC50 denotes the midpoint of a concentration-inhibition curve. At Mu-type opioid receptor, `C[C@@H](NC(=O)[C@@H](N)Cc1ccc(O)cc1)C(=O)N[C@@H](Cc1ccccc1)C(=O)NCC(=O)N[C@@H](Cc1ccc(O)cc1)C(=O)N1CCC[C@H]1C(=O)N[C@@H](CO)C(N)=O` [DERMORPHIN] came in with an IC50 of 1.82 nM.
